{"sequences": {"note": "Sequences of proteins named here, by UniProt entry; tags and fusion partners are left off. Residues count along the entry.", "UniProt Q460N5, 1470-1801 limits assumed": "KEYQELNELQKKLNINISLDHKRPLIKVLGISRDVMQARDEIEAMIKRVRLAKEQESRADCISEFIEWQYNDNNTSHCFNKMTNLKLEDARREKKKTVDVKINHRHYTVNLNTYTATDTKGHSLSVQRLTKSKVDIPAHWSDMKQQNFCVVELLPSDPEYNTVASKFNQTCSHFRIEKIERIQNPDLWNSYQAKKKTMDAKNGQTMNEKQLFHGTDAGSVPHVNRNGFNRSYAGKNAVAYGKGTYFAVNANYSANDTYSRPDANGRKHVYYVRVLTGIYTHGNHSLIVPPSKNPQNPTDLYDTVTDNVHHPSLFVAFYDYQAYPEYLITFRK"}, "source": "patent US20240400586A1", "about": "“HETEROARYL DERIVATIVE PARP INHIBITOR AND USE THEREOF” (HAISCO PHARMACEUTICAL GROUP CO., LTD., priority 2021, published 2024)", "biological_target": "PARP14 (Homo sapiens (Human), UniProt Q460N5)", "experiment": "PARP14 enzyme activity test", "assay_type": "biochemical", "note": "Several values for one entry are separate records, joined by “and”; a condition that tells them apart may be missing. Identical values can stand only once."}
{"smiles": "CCc1cc2ncc(CN3CCN(c4ccc(C(=O)NC5CC5)nc4)CC3)cc2[nH]c1=O", "note": "[Compound 4, N-cyclopropyl-5-(4-((7-ethyl-6-oxo-5,6-dihydro-1,5-naphthyridin-3-yl)methyl)piperazin-1-yl)picolinamide]", "values": [{"measurement": "IC50", "result": "> 0.5 µM and 7.06 µM"}]}
